Laboratory results reported in patent US20150072968A1, “Treating Infections with Ceftolozane/Tazobactam in Subjects Having Impaired Renal Function” (Calixa Therapeutics, Inc., priority 2013, published 2015).

Test system: Escherichia coli
Assay: Phase 3 cUTI study, per pathogen microbiological eradication
Assay type: in vivo
Conditions: ME population
Text: The primary efficacy endpoint was the composite microbiological and clinical cure response at the test-of-cure (TOC) visit in the microbiologically modified intent-to-treat (mMITT) population, which included all patients who received study medication and had at least 1 baseline uropathogen. The key secondary efficacy endpoint was the composite microbiological and clinical cure response at the TOC visit in the microbiologically evaluable (ME) population, which included protocol-adherent mMITT patients with a urine culture at the TOC visit.

Structure (SMILES): C[C@H]1COc2c(N3CCN(C)CC3)c(F)cc3c(=O)c(C(=O)O)cn1c23 [Levofloxacin]
- Per pathogen microbiological eradication rate at TOC visit (Escherichia coli (CTX-M-14/15 ESBL producing)): 13/25 (52.0) %
- Per pathogen microbiological eradication rate at TOC visit (Escherichia coli (ESBL-producing)): 18/36 (50) %
